Experimental data taken from paper PMC11318003 (ACS Medicinal Chemistry Letters, 2024).

What was measured:
[1] = PAMPA, pH 7.4
[2] = in vitro; conditions: PAMPA, pH 7.4
[3] = pH 7.4
[4] = physchem; conditions: pH 7.4, aqueous buffer, kinetic from dmso stock

| SMILES | Permeability [1] | Papp [2] [×10⁻⁶ cm/s] | solubility [3] [%] | solubility at 24 h [4] [µM] |
| --- | --- | --- | --- | --- |
| Cn1c(=O)c2c(ncn2C)n(C)c1=O [Caffeine] | 10.4 ± 1.69 10-6 cm/s |  |  |  |
| O=c1c2ccccc2cnn1CO[C@@H]1C=CO[C@H](CO)[C@@H]1O [Compound 1] |  | 1.9 ± 0.35 |  |  |
| Cc1ccc(-c2nn(CO[C@@H]3C=CO[C@H](CO)[C@@H]3O)c(=O)c3ccccc23)cc1 [Compound 9] |  |  | 94 |  |
| O=c1c2ccccc2c(-c2ccccc2)nn1CO[C@@H]1C=CO[C@H](CO)[C@@H]1O [Compound 2] |  | 5.4 ± 0.88 | > 95 | > 95 |
